Test: Body weight during 14-day oral treatment before heat stroke
Assay type: in vivo, Wistar rats
Experimental: Eight male rats of Wistar/Han IGS strain (Charles River Laboratories, 69-St-Germain sur l'Arbresle—France) weighing 300 to 320 g are used. On receipt, the rats are housed, four to a cage, in 48×27×20 cm polycarbonate cages (U.A.R., 91-Epinay-Sur-Orge, France) in a controlled environment (50±5% humidity; temperature 22±1° C.; lighting from 20:00 h to 08:00 h, i.e. an inverted lightness/darkness cycle: 12 h/12 h).
The rats are weighed each day for the fourteen days of the treatment in order to determine their body weight change.

Cc1c(C)c2c(c(C)c1O)CC[C@@](C)(CCC[C@H](C)CCC[C@H](C)CCCC(C)C)O2 [Vitamin E, α-tocopherol]
Body weight (Day 9): 344.3 ± 15.6 g
Body weight (Day 10): 348.7 ± 17.8 g
Body weight (Day 13): 357.6 ± 19.4 g
Body weight (Day 14): 361.0 ± 18.4 g
